Apparent affinities of Ab-14 variants for a coronavirus HR2 peptide

Target peptide (SARS-CoV-2 spike, HR2 region): PDVDLGDISGINAS

Each scFv is VH, the linker GGGGSGGGGSGGGGS, VL, as in the parent Ab-14, and differs from it in the CDRs of the heavy chain only.
VH: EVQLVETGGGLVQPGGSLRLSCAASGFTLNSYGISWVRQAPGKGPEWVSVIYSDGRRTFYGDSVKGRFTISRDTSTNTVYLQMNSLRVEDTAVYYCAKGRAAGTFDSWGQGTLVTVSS
VL: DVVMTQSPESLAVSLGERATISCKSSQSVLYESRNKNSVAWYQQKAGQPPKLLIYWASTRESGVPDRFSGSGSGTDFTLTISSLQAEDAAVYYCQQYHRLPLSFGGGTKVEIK

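These sequences belong to a second round, designed from the earlier measurements on random variants of the parent. Several design methods are mixed in this list. The scFvs were displayed on barcoded MATa yeast, the peptide on MATalpha yeast. After mating in shaken culture at 30 °C for 16 h, diploids were selected and their barcode pairs sequenced. The ratio of observed to expected reads was calibrated, replicate by replicate, on BCL2-family standards whose Kd was known from biolayer interferometry. There are six technical replicates.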

Variants are written as CDR1, CDR2 and CDR3 of the heavy chain (limits as in the source). Parent: GFTLNSYGIS, VIYSDGRRTFYGDSVK, GRAAGTFDS. This list holds designs with more than six substitutions. The Kd shown is the geometric mean over detected replicates; a lower Kd is a better binder. An entry "nd" has no value in the source: the pair was not observed among the diploids in any replicate. This suggests poor binding but is not conclusive. Order: sorted from the lowest average up, undetected variants last. The authors' rule: three or more of the six replicates give a measured affinity, fewer mean a poor binder. The parent sequence was in this pool as ten entries: three were never detected, three once, and four in most replicates, with averages from 2.2 nM to 240 nM. The range of this assay differs from that of the first round, and the authors advise against merging the two. As a blank, each scFv also met three strains without target: over all heavy chain designs, 1% of these pairings were detected, typically at 120 nM and seldom below 7.0 nM.

For GFDLDEYGIS | VIYADGMRTFYADSVK | GNTAGTFDV, the assay gave 180 pM (6 of 6 replicates). Variant GFDLDEYGIS | VIYADGKRTAYSDSVK | GNNAGTFDQ gave 180 pM (6 of 6 replicates). For GFDLNEYGIS | VIYADGRRTFYVDSVK | GHNAGTFDV, the assay gave 190 pM (6 of 6 replicates). For GFDLNEYGIS | VIYADGRRTFYADSVK | GEVAGTFNS, the assay gave 200 pM (6 of 6 replicates). Variant GFDLNEYGIS | VIYADGRRTFYQDSVK | GQLAGTFDL showed 250 pM (6 of 6 replicates).

With GFDLNEYGIS | VIYADGRRTAYVDSVK | GNVAGTFDQ the result was 270 pM (6 of 6 replicates). For GFDLNEYGIS | VIYADGVRTAYADSVK | GEVAGTFDT, the assay gave 300 pM (6 of 6 replicates). With GFDLNEYGIS | VIYADGRRTFYTDSVK | GETAGTFDQ the result was 370 pM (6 of 6 replicates). With GFDLNEYGIS | VIYADGRRKAYADSVK | GNVAGTFDL the result was 390 pM (6 of 6 replicates). For GFDLDEYGIS | VIYADGRRTFYIDSVK | GQNAGTFDQ, the assay gave 430 pM (6 of 6 replicates).

Variant GFDLNEYGIS | VIYADGVRTAYVDSVK | GNEAGTFDV showed 620 pM (6 of 6 replicates). Variant GFDLNEYGIS | VIYADGSRTAYADSVK | GNQAGTFDI gave 680 pM (6 of 6 replicates). Variant GFNLNEYGIS | VIYADGRRTFYADSVK | GGWAGTFDV gave 680 pM (6 of 6 replicates). With GFDLNEYGIS | VIYADGRRTAYVDSVK | GNQAGTFDQ the result was 790 pM (6 of 6 replicates). For GFDLNEYGIS | VIYADGVRTFYADSVK | GEIAGTFDV, the assay gave 1.0 nM (6 of 6 replicates).

For GFDLDEYGIS | VIYADGRRTFYADSVK | GELAGTFDM, the assay gave 1.3 nM (6 of 6 replicates). With GFDLNEYGIS | VIYADGRRTAYADSVK | GNVAGTFDQ the result was 1.6 nM (6 of 6 replicates). Variant GFSLQDYGIS | VIYADGVRTAYVNAVK | GKWGATILG showed 2.4 nM (6 of 6 replicates). Variant GFDLDEYGIS | VIYADGVRTAYADSVK | GNEAGTFDI gave 5.4 nM (6 of 6 replicates). With GQDLNEYGIS | VIYADGRRTMYANDVK | GKQGGIFED the result was 61 nM (1 of 6 replicates).

For GFDLEEFGIS | VIYADGTRTMYLPTVK | GVTGGTFDM, the assay gave 80 nM (5 of 6 replicates). Variant GFPLDSYGIF | VIYSDGRNTFLGDSVK | GRAAGTALS gave 250 nM (2 of 6 replicates). For GFALNEYGIS | VIYADNRRTQYGDSVK | GRAAGTVPS, the assay gave 2.6 µM (2 of 6 replicates). With GESLDQYGIS | VIYADGVRTSYTNSVK | GVWAGTFMQ the result was nd (0 of 6 replicates). Variant GFQIDEYGIS | VIYADGMRTAYSDSFK | GVVTTMMVL showed nd (0 of 6 replicates).

Variant GYDLDQYGIS | VIYADGMRSYYADSVK | GHEGDILYV gave nd (0 of 6 replicates). Variant GFDLNEYGVS | VIYADGMRRAYAANFK | GVTAGGLGI gave nd (0 of 6 replicates). Variant GQDLNEYGIS | VIYADGKRVAYEDSVK | GKSKGLVFV gave nd (0 of 6 replicates). Variant GFDLEEWGIS | VIYADGKRTAYADNVK | GMSGADLMF showed nd (0 of 6 replicates). Variant GFELQEYGIS | VIYADGMRAAYSDNVK | GDNRGIFHM showed nd (0 of 6 replicates).

Variant GESLNEYGIS | VIYADGLRSKYADKFK | GQLAGYFDV showed nd (0 of 6 replicates). Variant GFNLNEYGIS | VIYADGIRENYADSFK | GKSNNFFLD gave nd (0 of 6 replicates). For GKDIEEYGVS | VIYADGKRNAYANKFK | GDNAGSFVD, the assay gave nd (0 of 6 replicates). Variant GFDIGEYGVS | VIYADGKRMAYAWKVK | GKEAGTFIL showed nd (0 of 6 replicates). For GFSLDEYGIS | VIYADGNRQEYIDDVK | GNYGGDFIE, the assay gave nd (0 of 6 replicates).

The 4 strongest on average among those seen in every replicate, once more:

{"CDR-H1": "GFDLDEYGIS", "CDR-H2": "VIYADGMRTFYADSVK", "CDR-H3": "GNTAGTFDV", "Kd": "180 pM", "seen in": "6 of 6"}
{"CDR-H1": "GFDLDEYGIS", "CDR-H2": "VIYADGKRTAYSDSVK", "CDR-H3": "GNNAGTFDQ", "Kd": "180 pM", "seen in": "6 of 6"}
{"CDR-H1": "GFDLNEYGIS", "CDR-H2": "VIYADGRRTFYVDSVK", "CDR-H3": "GHNAGTFDV", "Kd": "190 pM", "seen in": "6 of 6"}
{"CDR-H1": "GFDLNEYGIS", "CDR-H2": "VIYADGRRTFYADSVK", "CDR-H3": "GEVAGTFNS", "Kd": "200 pM", "seen in": "6 of 6"}

Reference: Li et al. 2023, doi:10.1038/s41467-023-39022-2. File: FLAb, binding data.